Yeast mating assay 1: variants of the scFv Ab-14

Target peptide (SARS-CoV-2 spike, HR2 region): PDVDLGDISGINAS

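Phage display of a naive human antibody library on the peptide gave the parent. Library AAYL50 holds single substitutions and randomly drawn double and triple substitutions in the CDRs. Affinity was read by AlphaSeq, a pooled yeast mating assay with surface-displayed partners. The frequency of each diploid, read from paired DNA barcodes, reflects how well the two displayed proteins bind. A regression on co-assayed BCL2-family reference pairs converts the normalised counts of each replicate to an apparent Kd. There are three technical replicates.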

Parent: Ab-14, a human scFv built as VH, a (GGGGS)3 linker, VL. Only the CDRs of the light chain vary.
VH: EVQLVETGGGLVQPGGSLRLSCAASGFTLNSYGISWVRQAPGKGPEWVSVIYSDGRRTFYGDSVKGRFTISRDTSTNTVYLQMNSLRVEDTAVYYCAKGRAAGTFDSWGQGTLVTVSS
VL: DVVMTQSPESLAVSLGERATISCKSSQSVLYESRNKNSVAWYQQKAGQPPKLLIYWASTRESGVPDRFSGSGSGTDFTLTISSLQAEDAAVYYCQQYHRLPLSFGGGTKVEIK

Positions count from residue 1 of the parent VL; L30K puts K in place of L.
Values are apparent Kd, the geometric mean of the replicates that gave a signal; lower means stronger binding.
A pair that was not seen in any replicate is written "not detected"; this usually means weak binding, but a binder can also be missed.

Kd (apparent) | detected | changes
680 nM | 1 of 3 | L30K+S38V
12 nM | 3 of 3 | S25R+V29E+K36Y
6.4 µM | 2 of 3 | K24P+Q27G+S38G
not detected | 0 of 3 | V29M+S62E+Q95H
200 nM | 3 of 3 | E32H+Q96G+R99W
1.1 µM | 1 of 3 | S26C+S58D+L102K
not detected | 0 of 3 | Q95A+L100R+L102H
not detected | 0 of 3 | L30Q+Q96Y+R99N
800 µM | 1 of 3 | N35Q+V39N+A40M
not detected | 0 of 3 | S38R+S62C+L100N
1.6 µM | 3 of 3 | R34K+S38C+Q96R
6.7 µM | 2 of 3 | N37S+Q96V+S103L
1.9 µM | 1 of 3 | S26D+Q27W+R60M
16 µM | 2 of 3 | S26I+E32L+N35C
410 µM | 2 of 3 | V29F+L30N+L102T
14 µM | 1 of 3 | R34Q+H98Q+P101Y
3.3 nM | 3 of 3 | T59I+S62N+H98N
20 µM | 2 of 3 | S38Q+A57H+S62I
2.2 µM | 3 of 3 | S25D+K36E+L102A
150 nM | 3 of 3 | S58R+E61V+Q95H
160 nM | 3 of 3 | N37S+H98V+S103E
6.0 µM | 3 of 3 | V39M+S62E+S103P
not detected | 0 of 3 | S25N+V29F+L100A
61 nM | 3 of 3 | K36T+S62N+H98Y
30 nM | 3 of 3 | S25D+R34W+N37R
not detected | 0 of 3 | S28D+V39D+H98R
4.4 µM | 1 of 3 | A57K+T59K+R99K
26 nM | 3 of 3 | S28P+L100K
not detected | 0 of 3 | V39Y+P101W+L102N
300 nM | 1 of 3 | V29F+H98E
not detected | 0 of 3 | L30T+V39G+L102G
11 µM | 1 of 3 | S38A+E61K+L102K
240 nM | 2 of 3 | R34Y+A57C+Q96E
3.0 µM | 2 of 3 | V39C+S62C+L100M
1.7 µM | 2 of 3 | Y31C+R34Q+V39T
30 nM | 3 of 3 | S33E+N37E+Y97E
not detected | 0 of 3 | K36Y+A40D+S62H
500 nM | 3 of 3 | E32I+Y97E
8.1 µM | 1 of 3 | V29T+Y97C+L102I
1.5 nM | 3 of 3 | V29W+Q96C+L102F
6.4 µM | 1 of 3 | N37R+S62Q+P101W
180 µM | 2 of 3 | V39K+R60S+Y97M
13 nM | 3 of 3 | R34W+K36V+S62R
not detected | 0 of 3 | S28W+N37D+E61R
not detected | 0 of 3 | S28L+S33H+T59Y
not detected | 0 of 3 | V39G+L100S+L102P
not detected | 0 of 3 | S28H+N35P+Q96C
92 nM | 3 of 3 | S25A+L30Q+Y97E
11 µM | 2 of 3 | S38M+S58E+Y97F
not detected | 0 of 3 | A57Y+S58G+L102F
not detected | 0 of 3 | S62G+Q95H+L102Y
18 µM | 2 of 3 | S38F+P101L+S103V
not detected | 0 of 3 | E32L+W56I+L100T
490 µM | 2 of 3 | R60M+H98I+L102N
51 nM | 3 of 3 | K24V+K36S+S58K
6.9 µM | 1 of 3 | N35F+K36W+Q96D
42 µM | 2 of 3 | K36P+T59H+R60F
17 nM | 3 of 3 | L30T+Y31M+V39M
240 nM | 3 of 3 | S26K+Y31R+R99W
not detected | 0 of 3 | L30A+R34H+A57L
5.9 µM | 1 of 3 | V39N+A40Y+L102R
55 nM | 3 of 3 | S33G+T59M+R99V
5.9 µM | 1 of 3 | V39F+E61L+H98R
12 nM | 3 of 3 | Y31I+Q95V+H98C

A selection of 4 entries from above:

| changes | Kd (apparent) | detected |
|---|---|---|
| V39Y+P101W+L102N | not detected | 0 of 3 |
| T59I+S62N+H98N | 3.3 nM | 3 of 3 |
| L30Q+Q96Y+R99N | not detected | 0 of 3 |
| R60M+H98I+L102N | 490 µM | 2 of 3 |

Background: pairings of library AAYL50 with three empty control strains gave a value in 18% of cases (median 15 µM, 5th percentile 970 nM). Values in that range, when seen in few replicates, are hard to tell from nonspecific mating.

The measurements come from Engelhart et al. 2022 (doi:10.1038/s41597-022-01779-4) through the FLAb antibody collection.